{
  "sequences": {"note": "Sequences of proteins named here, by UniProt entry; tags and fusion partners are left off. A change or cut given only in a name is not applied to a line headed by its entry.", "UniProt P27986": "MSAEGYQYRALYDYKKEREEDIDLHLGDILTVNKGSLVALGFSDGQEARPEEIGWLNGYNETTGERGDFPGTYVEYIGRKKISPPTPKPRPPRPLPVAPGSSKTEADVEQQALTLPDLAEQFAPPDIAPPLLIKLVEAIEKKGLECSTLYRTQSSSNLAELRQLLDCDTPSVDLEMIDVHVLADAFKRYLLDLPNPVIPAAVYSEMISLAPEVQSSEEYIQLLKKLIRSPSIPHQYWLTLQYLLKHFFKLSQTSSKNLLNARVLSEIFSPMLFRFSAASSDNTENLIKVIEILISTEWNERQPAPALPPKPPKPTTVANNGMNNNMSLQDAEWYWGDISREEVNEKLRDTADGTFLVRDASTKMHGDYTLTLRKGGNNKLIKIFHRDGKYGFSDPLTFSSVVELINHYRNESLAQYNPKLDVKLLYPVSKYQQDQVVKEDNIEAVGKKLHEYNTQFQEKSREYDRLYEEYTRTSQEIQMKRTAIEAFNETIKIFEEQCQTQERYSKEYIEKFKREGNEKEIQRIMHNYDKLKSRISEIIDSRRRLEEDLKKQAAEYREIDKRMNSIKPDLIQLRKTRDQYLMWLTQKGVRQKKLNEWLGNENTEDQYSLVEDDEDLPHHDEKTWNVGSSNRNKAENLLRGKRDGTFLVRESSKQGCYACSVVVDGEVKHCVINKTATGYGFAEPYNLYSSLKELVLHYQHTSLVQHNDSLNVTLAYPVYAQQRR", "UniProt P42338": "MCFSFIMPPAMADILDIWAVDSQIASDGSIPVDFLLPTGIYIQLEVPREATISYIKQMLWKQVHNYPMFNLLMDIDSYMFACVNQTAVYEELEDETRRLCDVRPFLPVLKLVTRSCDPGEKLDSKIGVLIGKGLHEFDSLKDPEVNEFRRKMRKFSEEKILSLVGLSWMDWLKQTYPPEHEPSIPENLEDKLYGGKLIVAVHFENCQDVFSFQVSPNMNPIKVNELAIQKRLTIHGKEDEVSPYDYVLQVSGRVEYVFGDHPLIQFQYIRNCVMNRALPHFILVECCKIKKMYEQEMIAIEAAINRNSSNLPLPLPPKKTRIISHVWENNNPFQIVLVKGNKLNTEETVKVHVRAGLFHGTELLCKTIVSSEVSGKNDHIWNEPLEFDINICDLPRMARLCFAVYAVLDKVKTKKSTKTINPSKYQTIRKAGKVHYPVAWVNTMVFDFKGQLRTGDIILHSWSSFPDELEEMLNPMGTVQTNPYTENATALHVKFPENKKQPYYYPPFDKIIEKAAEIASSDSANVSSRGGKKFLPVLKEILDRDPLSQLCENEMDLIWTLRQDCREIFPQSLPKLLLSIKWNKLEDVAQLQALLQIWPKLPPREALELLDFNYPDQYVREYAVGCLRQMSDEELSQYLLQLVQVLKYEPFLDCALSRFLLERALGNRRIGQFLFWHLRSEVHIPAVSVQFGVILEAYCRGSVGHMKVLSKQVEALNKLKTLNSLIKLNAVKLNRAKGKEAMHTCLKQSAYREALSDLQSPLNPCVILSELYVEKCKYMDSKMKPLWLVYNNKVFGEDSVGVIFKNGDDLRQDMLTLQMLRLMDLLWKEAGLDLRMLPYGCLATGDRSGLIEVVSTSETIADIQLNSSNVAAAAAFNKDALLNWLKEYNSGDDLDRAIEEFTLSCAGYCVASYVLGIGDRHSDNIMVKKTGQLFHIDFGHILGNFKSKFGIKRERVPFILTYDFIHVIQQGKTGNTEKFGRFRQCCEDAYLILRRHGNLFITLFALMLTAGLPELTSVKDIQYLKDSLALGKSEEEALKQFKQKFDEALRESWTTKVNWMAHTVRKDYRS", "UniProt P48736": "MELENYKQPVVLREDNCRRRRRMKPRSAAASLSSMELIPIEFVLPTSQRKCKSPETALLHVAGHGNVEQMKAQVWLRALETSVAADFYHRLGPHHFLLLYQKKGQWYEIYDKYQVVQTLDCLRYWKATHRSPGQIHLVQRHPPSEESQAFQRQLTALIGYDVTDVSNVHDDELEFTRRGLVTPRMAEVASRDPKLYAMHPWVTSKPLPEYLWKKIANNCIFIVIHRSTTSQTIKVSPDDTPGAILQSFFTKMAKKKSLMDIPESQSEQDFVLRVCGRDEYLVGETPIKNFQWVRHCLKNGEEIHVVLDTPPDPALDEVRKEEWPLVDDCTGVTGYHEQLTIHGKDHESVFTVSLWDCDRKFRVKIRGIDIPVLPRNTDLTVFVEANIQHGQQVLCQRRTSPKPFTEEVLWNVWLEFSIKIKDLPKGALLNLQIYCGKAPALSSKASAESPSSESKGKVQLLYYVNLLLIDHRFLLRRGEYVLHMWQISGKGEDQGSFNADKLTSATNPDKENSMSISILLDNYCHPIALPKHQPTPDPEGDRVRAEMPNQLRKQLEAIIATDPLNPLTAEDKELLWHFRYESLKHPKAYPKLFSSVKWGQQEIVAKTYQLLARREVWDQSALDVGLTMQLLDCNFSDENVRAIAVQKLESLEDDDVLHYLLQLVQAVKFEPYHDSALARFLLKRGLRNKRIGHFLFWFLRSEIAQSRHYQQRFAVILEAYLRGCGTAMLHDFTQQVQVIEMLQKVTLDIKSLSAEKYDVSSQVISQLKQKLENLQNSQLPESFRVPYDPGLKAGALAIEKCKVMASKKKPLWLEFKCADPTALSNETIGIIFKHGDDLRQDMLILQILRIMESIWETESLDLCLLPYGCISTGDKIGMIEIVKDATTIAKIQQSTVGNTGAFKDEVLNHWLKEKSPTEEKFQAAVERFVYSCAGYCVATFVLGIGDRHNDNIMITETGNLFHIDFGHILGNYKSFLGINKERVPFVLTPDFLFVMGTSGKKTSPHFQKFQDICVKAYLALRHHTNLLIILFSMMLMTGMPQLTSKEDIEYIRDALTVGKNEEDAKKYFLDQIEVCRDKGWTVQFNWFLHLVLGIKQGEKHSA", "UniProt O00459": "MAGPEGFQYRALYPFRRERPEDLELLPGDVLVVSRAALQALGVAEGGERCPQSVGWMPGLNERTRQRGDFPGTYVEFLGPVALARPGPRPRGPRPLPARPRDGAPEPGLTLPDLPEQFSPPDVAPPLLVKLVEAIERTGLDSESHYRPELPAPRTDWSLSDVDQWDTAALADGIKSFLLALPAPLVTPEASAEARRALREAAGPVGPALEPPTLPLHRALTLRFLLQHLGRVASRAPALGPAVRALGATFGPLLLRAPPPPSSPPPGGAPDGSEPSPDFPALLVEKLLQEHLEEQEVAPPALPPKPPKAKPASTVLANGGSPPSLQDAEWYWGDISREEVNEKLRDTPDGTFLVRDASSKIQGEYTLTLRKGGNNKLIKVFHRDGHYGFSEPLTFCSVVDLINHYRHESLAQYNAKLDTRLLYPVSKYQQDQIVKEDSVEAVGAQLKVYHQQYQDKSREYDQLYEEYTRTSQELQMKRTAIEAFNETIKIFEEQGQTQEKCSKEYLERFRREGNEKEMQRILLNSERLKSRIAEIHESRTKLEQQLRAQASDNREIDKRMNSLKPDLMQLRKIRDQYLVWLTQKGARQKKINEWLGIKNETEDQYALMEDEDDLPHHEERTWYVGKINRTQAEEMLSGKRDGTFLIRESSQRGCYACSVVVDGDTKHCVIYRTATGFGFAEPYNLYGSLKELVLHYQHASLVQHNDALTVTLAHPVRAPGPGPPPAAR", "UniProt O00329": "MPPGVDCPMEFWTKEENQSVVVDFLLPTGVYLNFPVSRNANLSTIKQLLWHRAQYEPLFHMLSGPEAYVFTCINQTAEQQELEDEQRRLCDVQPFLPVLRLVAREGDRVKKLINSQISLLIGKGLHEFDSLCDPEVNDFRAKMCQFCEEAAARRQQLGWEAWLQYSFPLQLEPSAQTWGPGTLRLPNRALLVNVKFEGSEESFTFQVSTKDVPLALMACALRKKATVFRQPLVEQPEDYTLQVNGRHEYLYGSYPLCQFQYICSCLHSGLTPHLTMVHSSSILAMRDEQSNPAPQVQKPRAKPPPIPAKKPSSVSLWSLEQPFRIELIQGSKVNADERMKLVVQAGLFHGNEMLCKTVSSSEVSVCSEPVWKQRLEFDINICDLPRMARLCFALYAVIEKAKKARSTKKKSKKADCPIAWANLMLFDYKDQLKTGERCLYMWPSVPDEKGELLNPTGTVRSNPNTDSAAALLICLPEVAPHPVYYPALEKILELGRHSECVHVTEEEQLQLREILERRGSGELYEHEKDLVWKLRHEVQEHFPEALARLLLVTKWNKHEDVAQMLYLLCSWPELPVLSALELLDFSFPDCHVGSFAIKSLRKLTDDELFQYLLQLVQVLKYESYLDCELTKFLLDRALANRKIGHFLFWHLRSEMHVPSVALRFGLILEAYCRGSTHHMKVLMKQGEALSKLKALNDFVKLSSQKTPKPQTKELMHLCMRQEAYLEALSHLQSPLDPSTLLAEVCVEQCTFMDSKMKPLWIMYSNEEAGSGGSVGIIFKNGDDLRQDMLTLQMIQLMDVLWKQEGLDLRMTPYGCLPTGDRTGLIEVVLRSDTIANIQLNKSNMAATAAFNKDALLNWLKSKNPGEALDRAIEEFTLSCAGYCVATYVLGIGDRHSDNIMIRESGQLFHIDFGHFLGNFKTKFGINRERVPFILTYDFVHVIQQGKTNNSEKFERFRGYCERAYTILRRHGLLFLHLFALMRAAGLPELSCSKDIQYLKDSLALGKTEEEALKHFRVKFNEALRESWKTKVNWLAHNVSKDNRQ", "UniProt Q8WYR1": "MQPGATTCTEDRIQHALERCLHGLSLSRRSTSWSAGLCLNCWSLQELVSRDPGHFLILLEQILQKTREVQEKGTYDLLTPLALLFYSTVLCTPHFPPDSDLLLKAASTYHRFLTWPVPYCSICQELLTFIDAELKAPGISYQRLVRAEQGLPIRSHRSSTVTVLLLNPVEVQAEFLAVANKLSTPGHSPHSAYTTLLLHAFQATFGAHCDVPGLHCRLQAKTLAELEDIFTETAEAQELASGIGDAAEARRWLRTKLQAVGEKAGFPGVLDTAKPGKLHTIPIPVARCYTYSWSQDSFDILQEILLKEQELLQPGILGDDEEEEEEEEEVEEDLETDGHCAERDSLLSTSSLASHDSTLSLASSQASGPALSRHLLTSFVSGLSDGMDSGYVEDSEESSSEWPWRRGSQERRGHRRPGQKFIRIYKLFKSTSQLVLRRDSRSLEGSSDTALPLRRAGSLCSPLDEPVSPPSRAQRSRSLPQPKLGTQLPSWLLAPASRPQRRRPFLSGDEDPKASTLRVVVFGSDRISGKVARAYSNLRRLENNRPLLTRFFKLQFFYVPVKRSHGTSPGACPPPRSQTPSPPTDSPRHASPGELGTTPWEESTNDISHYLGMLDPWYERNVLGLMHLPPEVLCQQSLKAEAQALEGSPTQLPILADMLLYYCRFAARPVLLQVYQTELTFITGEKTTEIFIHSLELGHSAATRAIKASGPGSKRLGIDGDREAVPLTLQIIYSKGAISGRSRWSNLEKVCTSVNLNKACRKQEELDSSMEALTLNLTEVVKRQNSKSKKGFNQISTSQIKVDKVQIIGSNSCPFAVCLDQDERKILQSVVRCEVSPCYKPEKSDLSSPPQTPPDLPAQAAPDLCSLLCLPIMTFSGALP"},
  "source": "ChEMBL document CHEMBL3882389",
  "about": "“Phosphatidylinositol 3-Kinase Inhibitors for the Treatment of Lymphoproliferative Malignancies” (2014)",
  "key": {"[1]": {"molecular_target": "T1, PI3-kinase class I (Homo sapiens) (UniProt P27986+P42338+P48736+P42336+O00459+O00329+Q8WYR1+Q92569)", "assay": "Inhibition of PI3K (unknown origin) assessed as reduction in phosphorylation of pEBP1", "type": "protein-complex assay"}, "[2]": {"molecular_target": "T1, PI3-kinase class I (Homo sapiens)", "assay": "Inhibition of PI3K (unknown origin) assessed as reduction in phosphorylation of pAKT", "type": "protein-complex assay"}},
  "note": "Activity calls are given as the source filed them. The calls are words filed in the database; no cut-off is given here.",
  "data": [
    {"smiles": "COc1ccc(Cl)c(Nc2nc3ccccc3nc2NS(=O)(=O)c2cccc(NC(=O)C(C)(C)N)c2)c1", "note": "[PILARALISIB]", "values": [
      {"measurement": "inhibition", "setting": "[1]", "value": "Active"},
      {"measurement": "inhibition", "setting": "[2]", "value": "Active"}
    ]}
  ]
}
